Test results: paper PMC7083851, “Extended pharmacodynamic responses observed upon PROTAC-mediated degradation of RIPK2” (Communications Biology, 2020)

Tested on: human PBMCs

SMILES: CN[C@@H](C)C(=O)N[C@H](C(=O)N1C[C@@H](NC(=O)c2cnc(N3CCN(CCCOc4cc5ncnc(Nc6n[nH]c(C)c6C)c5cc4S(=O)(=O)C(C)(C)C)CC3)cn2)C[C@H]1C(=O)Nc1c(F)cccc1F)C(C)(C)C [PROTAC 6]
- effect on cell viability, in words: no
